Source: patent US8637558B2 (Industry-Academic Cooperation Foundation, Chosun University, priority 2008, dated 2014)

Chains of the proteins cited; added tags and fusions are not shown. Lines headed by an entry give the natural chain unless they say otherwise; changes in a name come on top.
UniProt P15428: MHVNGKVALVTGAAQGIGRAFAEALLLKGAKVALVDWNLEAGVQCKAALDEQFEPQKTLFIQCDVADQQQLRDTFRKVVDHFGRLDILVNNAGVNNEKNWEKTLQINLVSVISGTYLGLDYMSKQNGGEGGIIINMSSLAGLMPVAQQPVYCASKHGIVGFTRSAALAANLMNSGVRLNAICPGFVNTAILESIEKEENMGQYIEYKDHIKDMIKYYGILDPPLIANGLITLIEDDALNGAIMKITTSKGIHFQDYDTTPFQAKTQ

Biological target: 15-PGDH (Homo sapiens (Human), UniProt P15428)
Experiment: Assay for the activities of 15-PGDH inhibitors (formation of NADH at 340 nm)
Format: biochemical
Settings: purified 15-PGDH enzyme, 21 μM PGE2, 0.25 mM NAD+, pH 7.5; concentration inhibiting 50% of 15-PGDH activity
Description: <1-1> Expression and Purification of 15-PGDH
A 15-PGDH cDNA plasmid containing BamHI and EcoRI sites of the pGES-2T expression vector was used to transform Escherichia coli BL-21 lysS in accordance with the ordinarily used in the art. The transformed cells were grown in 500 mL LB medium containing 50 μg/mL ampicillin at 37° C. while being stirred at 220 rpm until the OD600 reached 0.6. Isopropyl β-D-thiogalactoside (1 mM) was added and the cells were allowed to grow for 12 hours at 25° C. Then, the pellets were harvested by centrifugation at 4000×g for 30 minutes at 4° C. The cell pallets were resuspended in 20 mL cell lysis buffer (1×PBS buffer (pH 7.4) containing 1 mM EDTA and 0.1 mM DTT) and sonicated (14×10 s at 4° C.). The disrupted cells were centrifuged at 4000×g for 20 minutes at 4° C. The supernatant was loaded slowly on a glutathione-sepharose 4B column, which was equilibrated at 4° C. with a cell lysis buffer (1×PBS buffer (pH 7.4) containing 1 mM EDTA and 0.1 mM DTT). The column was washed with the lysis buffer until OD280 reached below 0.005. Then, 15-PGDH was eluted from the glutathione-sepharose 4B column at room temperature for 5 minutes by using the elution buffer (50 mM Tris-HCl (pH 8.0) containing 10 mM reduced glutathione, 1 mM EDTA and 0.1 mM DTT). The concentration and the purity of the purified enzyme were determined by SDS-PAGE.
<1-2> Assay for the Activities of 15-PGDH Inhibitors
The absorbance of the reaction mixture was recorded at 340 nm so that the activities of the derivatives according to the present invention as 15-PGDH inhibitors were determined from a standard curve prepared from the absorbance of various concentrations of NADH at 340 nm.

Row | IC50 | SMILES
1 | 308 nM | O=C1NC(=O)/C(=C/c2ccc(OCCN3CCS(=O)(=O)CC3)c(Cl)c2)S1 [Derivative 17, 5-[3-chloro-4-(2-thiomorpholine-1,1-dioxideethoxy)benzylidene]-thiazolidine-2,4-dione]
2 | 3640 nM | O=C1NC(=O)/C(=C/c2ccc(OCc3ccccn3)cc2)S1 [Derivative 26, 5-(4-(pyridin-2-ylmethoxy)benzylidene)thiazolidine-2,4-dione]
3 | 219 nM | O=C1NC(=O)/C(=C/c2ccc(OCCOC3CCCCC3)cc2)S1 [Derivative 61, 5-(4-(2-(Cyclohexyloxy)ethoxy)benzylidene)thiazolidine-2,4-dione]
4 | 47.5 nM | O=C1NC(=O)/C(=C/c2ccc(OCc3ccccc3)c(Cl)c2)S1 [Derivative 68, 5-(4-(benzyloxy)-3-chlorobenzylidene)thiazolidine-2,4-dione]
5 | 1740 nM | CC1(COc2ccc(CC3SC(=O)NC3=O)cc2)CCCCC1 (centres unmarked) [Derivative 112, 5-(4-((1-methylcyclohexyl)methoxy)benzyl)thiazolidine-2,4-dione]

Row | SMILES | IC50
6 | O=C1NC(=O)/C(=C/c2ccc(OCCCCC3CCCCC3)cc2)S1 [Derivative 48, 5-(4-(4-cyclohexylbutoxy)benzylidene)thiazolidine-2,4-dione] | 6010 nM
7 | O=C1NC(=O)/C(=C/c2ccc(OCCCCc3ccccc3)c(Cl)c2)S1 [Derivative 71, 5-(3-chloro-4-(4-phenylbutoxy)benzylidene)thiazolidine-2,4-dione] | 47.5 nM
8 | O=C1NC(=O)/C(=C/c2cccc(OCCCCc3ccccc3)c2Cl)S1 [Derivative 74, 5-(2-chloro-3-(4-phenylbutoxy)benzylidene)thiazolidine-2,4-dione] | 54.3 nM
